# Antibody variant affinities, Ab-14 light chain, assay B

Source: Li et al. 2023 (doi:10.1038/s41467-023-39022-2), MIT Lincoln Laboratory and A-Alpha Bio; data file from the FLAb repository.

Target: peptide PDVDLGDISGINAS, taken from heptad repeat 2 (HR2) of SARS-CoV-2 spike.

Ab-14 is the parent antibody, in scFv form: VH, then the linker GGGGSGGGGSGGGGS, then VL. The heavy chain is unchanged in all variants.
VH: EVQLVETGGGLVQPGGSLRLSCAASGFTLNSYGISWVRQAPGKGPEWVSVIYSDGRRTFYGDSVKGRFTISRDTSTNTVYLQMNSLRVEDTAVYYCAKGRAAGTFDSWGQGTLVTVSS
VL: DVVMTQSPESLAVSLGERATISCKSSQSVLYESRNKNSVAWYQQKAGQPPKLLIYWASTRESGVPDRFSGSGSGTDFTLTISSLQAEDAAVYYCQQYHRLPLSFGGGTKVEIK

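Designed CDR sequences, proposed from the first random library and measured here. Group labels follow the data file (Ctrl: baseline library sampled from a position-specific scoring matrix, with some repeated check sequences; En: ensemble of fine-tuned language models; GP: Gaussian process model; HC: hill climbing; Gen: genetic algorithm; Gibbs: Gibbs sampling; a sequence that several methods proposed may carry one label only). AlphaSeq pools MATa yeast showing the antibodies with MATalpha yeast showing the peptide. Pairs that bind mate more often; barcode pairs of the diploids are counted by sequencing. Each replicate has its own calibration line, from reference interactions of the BCL2 family. Each pool was mated in six replicate cultures.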

Variants are written as CDR1, CDR2 and CDR3 of the light chain (limits as in the source). Parent: KSSQSVLYESRNKNSVA, WASTRES, QQYHRLPLS. The read-out is the apparent dissociation constant on a log10 scale (nM): the lower, the stronger. "nd" marks a missing value. The strain was present, yet no cells mated with the target were sequenced in that replicate, which points to weak or no binding.

CDR-L1	CDR-L2	CDR-L3	group	log10 Kd (nM) by replicate
KCSQSVLYESRNKNSVA	ECTTRES	QQYHRLPLM	Ctrl	nd nd nd nd nd nd
KSSQSPLDETRNKNSVA	DASTRES	QQYHRLPLS	Ctrl	1.40 nd 2.46 1.25 2.02 2.98
KSSQSVTYESRNKNSVA	WAETREN	QQGARLPGS	Ctrl	nd nd nd nd nd nd
KLSQSVWYESRNKNSVA	EASTRCS	QQYHRLPLS	GP_Gen	0.64 0.32 0.56 0.23 0.55 -0.10
KFSQSVLYESRAKNGVA	NASTRES	QQYHRLPLS	GP_HC	-0.19 0.13 0.53 0.13 0.25 -0.25
KSSQSELYESRNKNSVA	QASTRVS	QQKHRLPLS	Ctrl	0.18 -0.32 -0.22 0.19 -0.51 -0.17
KSSGSWLYESRNKNSVA	GASFRES	QQYHRLPLS	GP_HC	0.31 0.05 0.27 0.28 0.30 0.34
MLSQMWALGMKVKNSVA	QASIRFN	QQYDRLPLI	En_Gen	nd nd nd nd nd nd
KSSQSVLMESRNKNSVA	MASTREE	QQYHRLPLS	Ctrl	0.80 0.66 0.44 0.75 0.52 0.94
KISMLHNQTFEQSNNVA	EMVTRMK	QQYNRLPLS	En_Gen	1.38 1.27 0.96 1.24 1.17 1.07
KLSNWQFDSYGNKESVA	ENEATSN	QQYSLLPLS	En_Gibbs	nd nd nd nd nd nd
MISSVMGINNMYNSSVA	QAEERVE	QQYDRLPLA	En_Gen	nd nd nd nd nd nd
KLQQSVPYESRNKNSVA	NASYRES	QQYHRLPLS	GP_Gen	1.13 0.55 0.49 0.50 0.53 0.97
KQSQEKLGESRNKNSVA	DASTRES	QQYHRLPLS	GP_HC	-0.13 -0.13 0.00 -0.28 -0.09 0.06
KLQQSVEYESRMKNSVA	NASTRES	QQYHRLPLS	GP_Gen	0.39 0.19 0.17 -0.05 0.01 0.23
HIGLATMSEETVRNSVA	NNSTREE	QQYDRLPLS	En_Gen	2.04 2.95 2.28 nd 2.19 2.32
KLSASVLYESRNKNSVA	NASTRES	QQYHRLPLS	GP_HC	0.02 -0.14 -0.24 -0.17 -0.20 0.04
IVSQLMLWGWSASNSIA	EAVTRLN	QQYDRLPLI	En_Gen	1.55 1.53 nd nd 2.34 1.14
KLSVSYLFESQEKNSIA	ENSTREK	QHYHRLPLS	En_HC	nd nd nd nd nd 2.73
KLRQSIHIESFNKNNVA	EMTTRES	QSYDRLPLS	En_HC	1.19 1.57 1.22 1.08 1.56 1.65
KVSQSELYESRNKNSVA	NASTRLS	QQYHRLPLS	GP_Gen	-0.09 -0.12 -0.05 -0.19 0.14 0.01
KISMSIRYESQAKNSIA	EMTTREE	QSYHRLPLS	En_HC	1.13 0.68 1.44 1.68 0.95 1.34
KIGQQVTYESTMRNAIA	QMTTREE	QQYHRLPLS	En_HC	0.52 0.34 0.42 0.42 0.50 0.52
TISGVMQSMSHSKSNVA	EVSMRLD	QQYVRLPLA	En_Gen	nd nd nd nd nd 2.14
KLSQSVLYESRNKNSVA	GASTRCS	QQYHRLPLS	GP_Gen	-0.28 -0.47 -0.49 -0.52 -0.37 -0.28
SLEAFEYQIMKDLNNIA	NTNTRVN	QQYMRLPFM	En_Gibbs	0.30 0.35 0.15 -0.03 0.08 0.38
KSSQSVLYESRNKNSVA	HASTRES	QQYHRLPLF	Ctrl	1.08 0.45 1.11 1.75 1.15 1.30
QINHQGLSANLNDRNVA	AKNLRVD	QQYNRLPLS	En_Gibbs	0.37 0.11 0.16 0.22 0.20 0.32
KSSQSVLYESRNKNSVA	WASTRDS	QQYHVLPLS	Ctrl	nd nd 1.37 1.68 nd 1.90
KVSVSQDYESRNKNSVA	NASTREE	QQYHRLPLS	GP_Gibbs	0.02 0.08 0.09 -0.13 -0.03 0.22
KVQQSVLYESRNKNAVA	EASTRES	QQYHRLPLS	GP_Gen	-0.12 -0.13 0.12 -0.16 -0.29 -0.31
KISMVAGHMSMSRNNVA	EMATREN	QQYDRLPLS	En_Gen	0.96 1.36 0.78 0.77 0.79 0.70
VLPDNLLMFESQYHSIA	EGVQRME	QQYERLPLT	En_Gibbs	0.84 0.83 0.66 0.36 0.54 0.80
KIERSTKGDRYFQYSIA	QGDIREK	QQYAQLPLT	En_Gibbs	0.82 0.89 0.44 0.93 0.58 0.61
KLSGIMRLESKVSNSIA	EMTTRGS	QQYDRLPLS	En_Gen	1.96 1.61 1.23 1.07 1.58 1.72
NVSQMVLTGSTLRNSVA	HASTRFN	QQYHRLPLI	En_HC	1.34 1.42 1.66 1.28 2.08 1.69
MFSQTVMYGSTMRNNVA	QTSTRES	QQYDRLPLS	En_HC	0.75 1.66 1.10 0.09 1.06 1.11
KISQSVEYESRDKNSVA	DANTRLS	QQYHRLPLS	GP_Gibbs	0.37 0.26 0.05 0.04 0.18 0.14
KVSQSFLYESRNKNSVA	NASQRES	QQYHRLPLS	GP_Gen	-0.08 -0.28 -0.33 -0.35 -0.18 -0.03
TISQSFMMENQFKNSVA	QASTREN	QCYDRLPLS	En_HC	0.25 0.60 0.25 -0.10 -0.20 0.18
IVSQSVMGESRNKNSVA	QTSERNY	QQYDRLPLS	En_HC	0.67 0.68 0.79 0.66 0.98 0.77
KQSQSDLYESRNKNSVA	NASTRES	QQYHRLPLS	GP_HC	0.34 -0.09 0.03 0.04 0.02 0.37
IVSQLMIWGMHLKNSIA	EAQTRVN	QQYDRLPLF	En_Gen	nd nd nd nd nd 2.10
KSSQSLLYEWRNKNSVA	WASTRES	QQYHRLPLS	Ctrl	nd nd nd nd nd nd
KTYVSQLYESRNKNSVA	QASERES	QQYHRLPLS	GP_Gibbs	-0.12 -0.50 -0.40 -0.84 -0.69 -0.30

The first 5 entries again:

{"CDR-L1": "KCSQSVLYESRNKNSVA", "CDR-L2": "ECTTRES", "CDR-L3": "QQYHRLPLM", "group": "Ctrl", "log10 Kd (nM) by replicate": "nd nd nd nd nd nd"}
{"CDR-L1": "KSSQSPLDETRNKNSVA", "CDR-L2": "DASTRES", "CDR-L3": "QQYHRLPLS", "group": "Ctrl", "log10 Kd (nM) by replicate": "1.40 nd 2.46 1.25 2.02 2.98"}
{"CDR-L1": "KSSQSVTYESRNKNSVA", "CDR-L2": "WAETREN", "CDR-L3": "QQGARLPGS", "group": "Ctrl", "log10 Kd (nM) by replicate": "nd nd nd nd nd nd"}
{"CDR-L1": "KLSQSVWYESRNKNSVA", "CDR-L2": "EASTRCS", "CDR-L3": "QQYHRLPLS", "group": "GP_Gen", "log10 Kd (nM) by replicate": "0.64 0.32 0.56 0.23 0.55 -0.10"}
{"CDR-L1": "KFSQSVLYESRAKNGVA", "CDR-L2": "NASTRES", "CDR-L3": "QQYHRLPLS", "group": "GP_HC", "log10 Kd (nM) by replicate": "-0.19 0.13 0.53 0.13 0.25 -0.25"}

In the paper, a design with two or fewer of six values counts as a poor binder. Background: pairings of all light chain designs with three empty control strains gave a value in 4% of cases (median 2.64, 5th percentile 1.59). Values in that range, when seen in few replicates, are hard to tell from nonspecific mating. The range of this assay differs from that of the first round, and the authors advise against merging the two. The parent sequence was in this pool as ten entries: three were never detected, three once, and four in most replicates, with averages from 0.34 to 2.37.